One molecule from PMC7595441 (2020) can be followed below.

The assay addresses amyloid-beta 42 (HiLyte Fluor labeled) Aβ42 (Homo sapiens).

B1: RAGE G82S (protein)
chain: AQNITARIGEPLVLKCKGAPKKPPQRLEWKLNTGRTEAWKVLSPQGGGPWDSVARVLPNSSLFLPAVGIQDEGIFRCQAMNRNGKETKSNYRVRVYQIPGKPEIVDSASELTAGVPNKVGTCVSEGSYPAGTLSWHLDGKPLVPNEKGVSVKEQTRRHPETGLFTLQSELMVTPARGGDPRPTFSCSFSPGLPRHRALRTAPIQPRVWEPVPLEEVQLVVEPEGGAVAPGGTVTLTCEVPAQPSPQIHWMKDGVPLPLPPSPVLILPEIGPQDQGTYSCVATHSSHGPQESRAVSISIIEPGEEGPTAGSVGGSGLGTLA
B1: binding was characterised by a dissociation constant (Kd) of 45 nM.
